Source: publication PMC9368758, “Cellular Redox Metabolism Is Modulated by the Distinct Localization of Cyclic Nucleotide Phosphodiesterase 5A Isoforms” (International Journal of Molecular Sciences, 2022)
Where “and” joins values, the source holds several entries; their conditions need not be identical. Equal values may be shown once.

Experiments:
[1] = target: MmPDE5A1 produced in the K. lactis ragx1 mutant (Mus musculus) (UniProt Q8CG03); assay: native gel or EMSA; native PAGE, 5% non-denaturing gel, Tris/glycine pH 8.3, 4 C, 1.0 ug purified protein, Coomassie; pre-incubated at 30 C up to 3 h with or without DTT, cGMP, sildenafil or diamide
[2] = target: MmPDE5A1 (Mus musculus cGMP-specific phosphodiesterase 5A, isoform A1), produced in K. lactis wild type strain CBS2359 (Mus musculus) (UniProt Q8CG03); assay: as above

| stoichiometry N [1] | stoichiometry N [2] | Substance |
| --- | --- | --- |
| 2 |  | MmPDE5A1 produced in the K. lactis ragx1 mutant (from UniProt Q8CG03 1-865) (enzyme) |
|  | 4 and 2 | MmPDE5A1 (Mus musculus cGMP-specific phosphodiesterase 5A, isoform A1), produced in K. lactis wild type strain CBS2359 (from UniProt Q8CG03 1-865) (enzyme) |
